# Measured values from US5254569A, “(Amidomethyl)nitrogen heterocyclic analgesics” (The Du Pont Merck Pharmaceutical Company, priority 1991, dated 1993).
# Protein sequences, listed by entry. Tags and fused reporters are not part of them. Lines headed by an entry give the natural chain unless they say otherwise; changes in a name come on top.
# UniProt P41144: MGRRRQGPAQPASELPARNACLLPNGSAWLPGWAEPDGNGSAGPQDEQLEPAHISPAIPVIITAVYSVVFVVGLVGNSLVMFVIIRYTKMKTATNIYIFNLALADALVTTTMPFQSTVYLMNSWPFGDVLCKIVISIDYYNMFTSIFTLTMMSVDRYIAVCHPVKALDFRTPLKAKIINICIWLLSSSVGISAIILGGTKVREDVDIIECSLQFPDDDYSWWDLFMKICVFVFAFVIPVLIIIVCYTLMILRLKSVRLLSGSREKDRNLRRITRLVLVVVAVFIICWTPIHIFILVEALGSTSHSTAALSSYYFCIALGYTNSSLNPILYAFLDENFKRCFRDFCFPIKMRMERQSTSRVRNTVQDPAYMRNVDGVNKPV
# Biological target: kappa opioid receptor (Cavia porcellus, UniProt P41144)
# Test: opioid receptor binding, kappa ((-)-[3H]ethylketocycloazocine)
# Design: species or system guinea pig (method, b1124); rat (Table 4 title)
# Conditions: read-out: Receptor Binding Ki KAPPA; 1 nM (-)-[3H]EKC with 500 nM DADLE and 20 nM sufentanil; brain membranes; apparent Ki
row,SMILES,Ki [nM]
1,CN1CCCC[C@H]1[C@H](c1ccccc1)N(C)C(=O)Cc1cccc2occc12 [Example 114],13
2,"CN1CCCC[C@H]1[C@H](c1ccccc1)N(C)C(=O)Cc1ccc(Cl)c(Cl)c1 [Example 106, (+)-[2S-(R*,R*)]-(3,4-dichlorophenyl)-N-methyl-N-[1-(1-methyl-2-piperidinyl)phenylmethyl]acetamide hydrochloride]",6
3,COc1cccc([C@@H]([C@@H]2CCCCN2C)N(C)C(=O)Cc2ccc(Cl)c(Cl)c2)c1 [Example 120],17
4,CN1CCCCC1C(c1ccccc1)N(C)C(=O)Cc1ccc(Cl)cc1Cl (centres unmarked) [Example 13],19
5,CN1CCCC[C@H]1[C@H](c1ccc(F)cc1)N(C)C(=O)Cc1ccc(Cl)c(Cl)c1 [Example 118],7
6,CN1CCCC[C@@H]1[C@@H](c1ccccc1)N(C)C(=O)Cc1ccc(Cl)c(Cl)c1 [Example 107],42
7,C=CCN1CCCC[C@H]1[C@H](c1ccccc1)N(C)C(=O)Cc1ccc(Cl)c(Cl)c1 [Example 180],46
8,CN1CCCC[C@@H]1[C@@H](c1ccccc1)N(C)C(=O)COc1ccc(Cl)c(Cl)c1 [Example 111],18
9,CN1CCCC[C@H]1[C@@H](c1ccccc1)N(C)C(=O)COc1ccc(Cl)c(Cl)c1 [Example 113],2430
10,CN1CCCC[C@H]1[C@H](c1ccc(F)cc1)N(C)C(=O)COc1ccc(Cl)c(Cl)c1 [Example 136],2
11,CN1CCCC[C@H]1[C@H](c1cccc(O)c1)N(C)C(=O)COc1ccc(Cl)c(Cl)c1 [Example 144],1
12,COc1cccc([C@@H]([C@@H]2CCCCN2C)N(C)C(=O)COc2ccc(Cl)c(Cl)c2)c1 [Example 140],14
13,CN1CCCCC1C(c1ccccc1)N(C)C(=O)Cc1ccc(Cl)c(Cl)c1 (centres unmarked),8
14,CN1CCCCC1C(c1ccccc1)N(C)C(=O)COc1ccc(Cl)c(Cl)c1 (centres unmarked) [Example 14],7
15,CN1CCCC[C@H]1[C@H](c1cccc(O)c1)N(C)C(=O)Cc1ccc(Cl)c(Cl)c1 [Example 122],3
16,"COc1cccc(C(C2CCCCN2C)N(C)C(=O)Cc2ccc(Cl)c(Cl)c2)c1 (centres unmarked) [Example 5, benzeneacetamide,3,4-dichloro-N-[1-(3-methoxyphenyl)-1-(1-methyl-2-piperidinyl)methyl]-N-methyl-, hydrochloride]",152
17,CN1CCCC[C@@H]1[C@H](c1ccccc1)N(C)C(=O)COc1ccc(Cl)c(Cl)c1 [Example 112],415
18,CN1CCCCC1C(c1ccccc1)N(C)C(=O)Cc1c(F)c(F)c(F)c(F)c1F (centres unmarked) [Example 10],57
19,"CN1CCCCC1C(c1cccc(O)c1)N(C)C(=O)Cc1ccc(Cl)c(Cl)c1 (centres unmarked) [Example 6, benzeneacetamide,3,4-dichloro-N-[1-(3-hydroxyphenyl)-1-(1-methyl-2-piperidinyl)methyl]-N-methyl-, hydrobromide]",9
20,CN1CCCC[C@H]1[C@@H](c1ccccc1)N(C)C(=O)Cc1ccc(Cl)c(Cl)c1 [Example 109],1660
21,CN1CCCC[C@H]1[C@H](c1ccccc1)N(C)C(=O)COc1ccc(Cl)c(Cl)c1 [Example 110],3

# Same assay, conditions: read-out: Receptor Binding Ki KAPPA; 1 nM (-)-[3H]EKC with 500 nM DADLE and 20 nM sufentanil; brain membranes; apparent Ki; hydrochloride
row,SMILES,Ki [nM]
1,CN1CCCCC1C(c1ccccc1)N(C)C(=O)Cc1ccc(Cl)c(Cl)c1 (centres unmarked),7

# Test system: not given
# Test: not given
# Conditions: literature/general knowledge; cited from earlier work
row,SMILES,sedation in mice
1,CN(C(=O)Cc1ccc(Cl)c(Cl)c1)[C@@H]1CCCC[C@H]1N1CCCC1 (relative stereo),sedation is characteristic

# Counter-ions that a name gives are not always drawn.
